Data reported in patent publication US20050228023A1, “Agonist and antagonist ligands of the nociceptin receptor” (published 2005).

Chains of the proteins cited; added tags and fusions are not shown. Lines headed by an entry give the natural chain unless they say otherwise; changes in a name come on top.
UniProt P41146: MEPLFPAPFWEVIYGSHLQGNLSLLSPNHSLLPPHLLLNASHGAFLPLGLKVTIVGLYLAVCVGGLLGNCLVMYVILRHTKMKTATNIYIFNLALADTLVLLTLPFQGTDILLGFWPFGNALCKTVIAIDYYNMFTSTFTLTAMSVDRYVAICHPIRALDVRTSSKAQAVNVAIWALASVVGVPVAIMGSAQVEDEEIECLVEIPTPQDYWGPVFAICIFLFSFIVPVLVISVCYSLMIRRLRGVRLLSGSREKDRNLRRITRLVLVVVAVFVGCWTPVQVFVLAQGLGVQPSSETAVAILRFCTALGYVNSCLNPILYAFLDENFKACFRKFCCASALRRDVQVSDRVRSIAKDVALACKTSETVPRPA

Key:
ORL1 [1] = biological target: T1, ORL1 (Homo sapiens, UniProt P41146); assay: ORL1 receptor binding, [3H]N/OFQ binding to membranes of transfected CHO cells; conditions: CHO cell membranes transfected with human ORL1
ORL1 [2] = biological target: T1, ORL1; assay: [35S]GTPγS binding functional activity and agonist/antagonist evaluation; conditions: for LIGAND (agonist or antagonist): compared with dose response of full agonist N/OFQ; for EC50: read-out: Functional Activity ORL1 [35S]GTPγS EC50, cell membranes, 60 min at 25° C.; for Kb: read-out: Functional Activity ORL1 [35S]GTPγS Ke, Ke=[A]/(Dose ratio−1), antagonist, 60 min

Row | SMILES | Ki (ORL1 [1]) [µM] | LIGAND (agonist or antagonist) (ORL1 [2]) | EC50 (ORL1 [2]) [µM] | Kb (ORL1 [2]) [µM]
1 | O=C1Cc2ccccc2N1C1CCN(C2CCC3CCCCC3C2)CC1 (centres unmarked) | 0.00564 | agonist | 0.016 | –
2 | CC1(C)[C@@H]2CC[C@@]1(C)[C@@H](N1CCC(N3C(=O)Cc4ccccc43)CC1)C2 | > 10 | – | – | –
3 | O=C1Cc2ccccc2N1C1CCN(C2CCc3ccccc3C2)CC1 (centres unmarked) | 0.0293 | agonist | 0.0925 | –
4 | O=C1Cc2ccccc2N1C1CCN(C2CCC3CCCCC3C2)CC1 (single isomer, unassigned) | – | agonist | – | –
5 | O=C1Cc2ccccc2N1C1CCN(C2C3CCCC2CCC3)CC1 (centres unmarked) | – | agonist | – | –
6 | CC(c1ccc2c(c1)Cc1ccccc1-2)N1CCC(N2C(=O)Cc3ccccc32)CC1 (centres unmarked) | 0.135 | antagonist | – | –
7 | O=C1Cc2ccccc2N1C1CCN(C2CCCc3ccccc32)CC1 (centres unmarked) | 0.0117 | – | – | –
8 | O=C1Cc2ccccc2N1C1CCN(C2CCCC3CCCCC32)CC1 (centres unmarked) | 0.0156 | agonist | 0.117 | –
9 | O=C1Cc2ccccc2N1C1CCN(C2CCCCCCC2)CC1 | 0.00139 | agonist | 0.0199 | –
10 | O=C1Cc2ccccc2N1C1CCN(CC2CCCCCCC2)CC1 | 0.00604 | antagonist | – | 0.0153
11 | O=C1Cc2ccccc2N1C1CCN(Cc2ccccc2)CC1 | 0.201 | agonist | 0.174 | –
12 | CC(c1ccc(C2CCCCC2)cc1)N1CCC(N2C(=O)Cc3ccccc32)CC1 (centres unmarked) | 0.253 | antagonist | – | –
13 | CC1(C)C2CCC(CN3CCC(N4C(=O)Cc5ccccc54)CC3)C1C2 (centres unmarked) | 0.0155 | antagonist | – | 0.0671
